Drawing on patent US20200368361A1 (Regeneron, published 2020), this text covers MFI for one molecule.

The assay has as its target T1, mouse MSR1 on RAW264.7 cells (mouse, UniProt P30204 1-458).
T1 construct: whole, on cells
T1 sequence (looked up): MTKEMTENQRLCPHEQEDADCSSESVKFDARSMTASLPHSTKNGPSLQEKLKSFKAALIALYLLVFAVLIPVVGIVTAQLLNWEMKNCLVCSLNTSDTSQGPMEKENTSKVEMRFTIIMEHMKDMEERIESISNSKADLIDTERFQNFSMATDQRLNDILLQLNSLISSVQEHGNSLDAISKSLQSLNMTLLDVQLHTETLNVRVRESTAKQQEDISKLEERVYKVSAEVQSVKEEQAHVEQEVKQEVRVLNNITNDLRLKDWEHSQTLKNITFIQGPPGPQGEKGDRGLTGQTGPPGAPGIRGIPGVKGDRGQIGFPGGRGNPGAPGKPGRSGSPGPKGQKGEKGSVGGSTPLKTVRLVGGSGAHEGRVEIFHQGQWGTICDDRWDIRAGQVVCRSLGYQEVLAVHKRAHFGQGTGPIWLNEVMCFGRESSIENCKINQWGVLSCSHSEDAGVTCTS
Description: flow cytometry, RAW264.7 cells, 10 ug/mL.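 Note: antibodies bound to RAW264.7 cells for 30 min on ice after Fc block with mouse IgG, S/N is MFI relative to unstained cells.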 In general terms: A flow cytometer gives signals particle by particle.

B1: H1H27771P2-N297Q (antibody, human IgG1, V domains shown)
VH: EVQLVESGGGLVQPGGSLRLSCAASGFTFSSYGMNWVRQAPGKGLEWVSVISGSGGSTYYADSVKGRFTISRDNSKNTLYLQMNSLRAEDTAVYYCAKDRWTYYYDSSGSPFDYWGQGTLVTVSS
VL: not shown
notes: human IgG1 Fc with N297Q; also called H1H27771P-N297Q
Consider B1, for which the MFI was found to be 4060.
